US10406239B2, “Water-soluble docetaxel anticancer drug compound and preparation method and use thereof” (NANJING YOUYI MEDICAL TECHNOLOGY CO., LTD, priority 2015, dated 2019)
Like-named read-outs stand apart in the source and are kept apart here.

Legend:
[1] = pH 7.40, 37° C.

Substance: Polyethylene Glycol Monomethyl Ether (Mn=1000) Docetaxel-2′-Diglycolate [XBB-023]
- average particle size (aqueous XBB-023 solution 2.5 mg/mL): 101.2 nm
- average particle size (aqueous XBB-023 solution 5 mg/mL): 345.0 nm
- Percentage content of XBB-023 after the hydrolysis of XBB-023 ([1]; hydrolysis time 0 hr): 98.489 Area %
- Percentage content of docetaxel after the hydrolysis of XBB-023 ([1]; hydrolysis time 0 hr): 0.151 Area %
- Percentage content of XBB-023 after the hydrolysis of XBB-023 ([1]; hydrolysis time 1 hr): 89.088 Area %
- Percentage content of docetaxel after the hydrolysis of XBB-023 ([1]; hydrolysis time 1 hr): 8.764 Area %
- Percentage content of XBB-023 after the hydrolysis of XBB-023 ([1]; hydrolysis time 2 hr): 81.724 Area %
- Percentage content of docetaxel after the hydrolysis of XBB-023 ([1]; hydrolysis time 2 hr): 15.654 Area %
- Percentage content of XBB-023 after the hydrolysis of XBB-023 ([1]; hydrolysis time 5 hr): 58.427 Area %
- Percentage content of docetaxel after the hydrolysis of XBB-023 ([1]; hydrolysis time 5 hr): 34.732 Area %
- Percentage content of XBB-023 after the hydrolysis of XBB-023 ([1]; hydrolysis time 6 hr): 50.359 Area %
- Percentage content of docetaxel after the hydrolysis of XBB-023 ([1]; hydrolysis time 6 hr): 41.899 Area %
- Percentage content of XBB-023 after the hydrolysis of XBB-023 ([1]; hydrolysis time 7 hr): 44.823 Area %
- Percentage content of docetaxel after the hydrolysis of XBB-023 ([1]; hydrolysis time 7 hr): 46.871 Area %
- Percentage content of XBB-023 after the hydrolysis of XBB-023 ([1]; hydrolysis time 25 hr): 13.289 Area %
- Percentage content of docetaxel after the hydrolysis of XBB-023 ([1]; hydrolysis time 25 hr): 70.097 Area %
- Percentage content of XBB-023 after the hydrolysis of XBB-023 ([1]; hydrolysis time 31 hr): 10.279 Area %
- Percentage content of docetaxel after the hydrolysis of XBB-023 ([1]; hydrolysis time 31 hr): 70.969 Area %
- Percentage content of XBB-023 after the hydrolysis of XBB-023 ([1]; hydrolysis time 48 hr): 6.213 Area %
- Percentage content of docetaxel after the hydrolysis of XBB-023 ([1]; hydrolysis time 48 hr): 73.189 Area %
- Percentage content of XBB-023 after the hydrolysis of XBB-023 ([1]; hydrolysis time 55 hr): 5.384 Area %
- Percentage content of docetaxel after the hydrolysis of XBB-023 ([1]; hydrolysis time 55 hr): 74.509 Area %
- Percentage content of XBB-023 after the hydrolysis of XBB-023 ([1]; hydrolysis time 72 hr): 4.156 Area %
- Percentage content of docetaxel after the hydrolysis of XBB-023 ([1]; hydrolysis time 72 hr): 74.38 Area %
- Percentage content of XBB-023 after the hydrolysis of XBB-023 ([1]; hydrolysis time 79 hr): 3.861 Area %
- Percentage content of docetaxel after the hydrolysis of XBB-023 ([1]; hydrolysis time 79 hr): 75.506 Area %
- Percentage content of XBB-023 after the hydrolysis of XBB-023 ([1]; hydrolysis time 103 hr): 3.299 Area %
- Percentage content of docetaxel after the hydrolysis of XBB-023 ([1]; hydrolysis time 103 hr): 75.61 Area %
- Percentage content of XBB-023 after the hydrolysis of XBB-023 ([1]; hydrolysis time 168 hr): 1.721 Area %
- Percentage content of docetaxel after the hydrolysis of XBB-023 ([1]; hydrolysis time 168 hr): 74.708 Area %
